Results on eight compounds are retold here after US8138187B2, “Substituted heteroaryl derivatives” (Gruenenthal GmbH, priority 2006, dated 2012).

Amino acid sequences for entries named in this document (tags omitted). A change or cut given only in a name is not applied to a line headed by its entry.
UniProt P35372, whole entry, looked up: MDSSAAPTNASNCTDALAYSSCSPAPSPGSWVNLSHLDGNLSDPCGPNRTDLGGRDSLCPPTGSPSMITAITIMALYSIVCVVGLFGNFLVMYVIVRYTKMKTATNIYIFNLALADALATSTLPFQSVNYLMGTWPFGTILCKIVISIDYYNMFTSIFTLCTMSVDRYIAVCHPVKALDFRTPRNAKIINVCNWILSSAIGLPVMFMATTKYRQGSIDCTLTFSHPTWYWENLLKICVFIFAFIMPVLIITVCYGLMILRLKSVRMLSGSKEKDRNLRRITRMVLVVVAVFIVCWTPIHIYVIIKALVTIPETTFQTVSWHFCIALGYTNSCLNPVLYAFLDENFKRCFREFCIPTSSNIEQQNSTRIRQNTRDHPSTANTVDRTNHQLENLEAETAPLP
UniProt P41146: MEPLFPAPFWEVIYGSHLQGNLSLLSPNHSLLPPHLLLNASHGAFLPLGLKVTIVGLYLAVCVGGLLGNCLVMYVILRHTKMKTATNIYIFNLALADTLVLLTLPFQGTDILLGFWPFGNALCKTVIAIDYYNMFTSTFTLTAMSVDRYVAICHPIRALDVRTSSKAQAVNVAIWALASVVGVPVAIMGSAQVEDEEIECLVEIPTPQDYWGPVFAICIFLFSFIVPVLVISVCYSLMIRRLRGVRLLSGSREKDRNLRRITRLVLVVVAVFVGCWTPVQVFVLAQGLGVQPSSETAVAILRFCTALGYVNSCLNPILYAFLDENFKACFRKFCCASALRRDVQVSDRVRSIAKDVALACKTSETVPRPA

One experiment concerns the target human μ opiate receptor (Homo sapiens, UniProt P35372). The experiment is described as follows: μ binding, displacement of [3H]-naloxone. The following applies: CHO-K1 membranes expressing human μ opiate receptor; for % inhibition (μ) at 1 μM: 1 μM test compound.
The test system of the next experiment is mice. The experiment can be described thus: Testing of analgesia in the tail flick test in mice. To be noted: mouse, 100 μg/kg i.v. (In hot-plate and tail-flick tests a longer latency is read as antinociception.)
Another experiment deals with ORL1 receptor (Homo sapiens, UniProt P41146). The experiment can be described thus: ORL1 receptor binding assay with 3H-nociceptin/orphanin FQ. To be noted: membranes from recombinant CHO-ORL1 cells; for % inhibition (ORL1) at 1 μM: 1 μM test compound.

Molecules are shown by their SMILES.

As a reminder, the Ki is the dissociation constant of the complex between target and ligand, obtained from inhibition or displacement. On to `CN(C)C1(c2ccccc2)CCC(c2[nH]c3ccccc3c2CCO)CC1` (centres unmarked), for which the Ki amounted to 0.0044 µM at human μ opiate receptor (read-out: Ki [μM] (μ), Cheng-Prusoff) and 0.0012 µM on ORL1 receptor (read-out: Ki [μM] (ORL1)). The “Tail-flick, i.v.” value in the experiment with mice came out at 99% MPE at 100 μg/kg.

For the compound `Cc1c(C2=CCC(c3ccccc3)(N(C)C)CC2)[nH]c2ncccc12` (racemic), on human μ opiate receptor, the “% inhibition (μ) at 1 μM” value stood at 60%. Also, the “% inhibition (ORL1) at 1 μM” value at ORL1 receptor is 35%.

Regarding `Cc1c(C2=CCC(c3cccc(F)c3)(N(C)C)CC2)[nH]c2ccccc12` (racemic), the “% inhibition (μ) at 1 μM” value on human μ opiate receptor is listed as 38%. For the same compound, the “% inhibition (ORL1) at 1 μM” value on ORL1 receptor is on record as 40%.

In the case of `CN(C)C1(Cc2ccccc2)CCC(c2[nH]c3ccccc3c2CCCC(=O)O)CC1` (centres unmarked), at human μ opiate receptor, the “% inhibition (μ) at 1 μM” value came to 88%. Besides, at ORL1 receptor, the “% inhibition (ORL1) at 1 μM” value stood at 36%.

Take `CCCc1c(C2CCC(Cc3ccccc3)(N(C)C)CC2)[nH]c2ccccc12` (centres unmarked): the “% inhibition (μ) at 1 μM” value at human μ opiate receptor is given as 41%. Moreover, the “% inhibition (ORL1) at 1 μM” value at ORL1 receptor came to 11%.

For the compound `Cc1c(C2=CCC(c3ccccc3)(N(C)C)CC2)n(CC2CO2)c2ccccc12` (racemic), on human μ opiate receptor, the “% inhibition (μ) at 1 μM” value came out at 64%. Also, the “% inhibition (ORL1) at 1 μM” value at ORL1 receptor came out at 29%.

As to `CN(C)C1(c2ccccc2)CC=C(c2[nH]c3ccccc3c2CCN2C(=O)c3ccccc3C2=O)CC1` (racemic), the “% inhibition (μ) at 1 μM” value on human μ opiate receptor was 61%. For the same compound, the “% inhibition (ORL1) at 1 μM” value on ORL1 receptor worked out at 36%.

Regarding `CCCCC1(N(C)C)CC=C(c2[nH]c3ccccc3c2CCNC(=O)CC(C)(C)C)CC1` (racemic), the “% inhibition (μ) at 1 μM” value at human μ opiate receptor amounted to 99%. In addition, on ORL1 receptor, the “% inhibition (ORL1) at 1 μM” value is listed as 63%.
